## Binding of CDR-mutated scFvs to a peptide of the spike HR2 region

Source: Engelhart et al. 2022 (doi:10.1038/s41597-022-01779-4), MIT Lincoln Laboratory and A-Alpha Bio; data file from the FLAb repository.

All variants were tested on one target, the spike HR2 peptide PDVDLGDISGINAS (SARS-CoV-2).

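The starting antibody came from a phage panning campaign against this peptide. The library (AAYL51) carries one to three amino acid substitutions per variant, with no insertions or deletions. In AlphaSeq, yeast of one mating type display the scFv and yeast of the other type display the target. Binding brings cells together so that they mate, and sequencing counts the barcode pairs among the diploids. A regression on co-assayed BCL2-family reference pairs converts the normalised counts of each replicate to an apparent Kd. Mating was done three times.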

Parent scFv Ab-91: VL joined to VH by three GGGGS repeats. Changes lie in the heavy chain CDRs alone.
VL: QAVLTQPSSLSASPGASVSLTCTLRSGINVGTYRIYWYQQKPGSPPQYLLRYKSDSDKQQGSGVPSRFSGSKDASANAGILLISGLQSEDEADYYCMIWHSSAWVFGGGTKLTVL
VH: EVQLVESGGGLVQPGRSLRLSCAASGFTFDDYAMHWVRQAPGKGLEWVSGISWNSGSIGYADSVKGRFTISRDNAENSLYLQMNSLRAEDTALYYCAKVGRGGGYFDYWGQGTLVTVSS

Variants are written as CDR1, CDR2 and CDR3 of the heavy chain (limits as in the source). Parent: GFTFDDYAMH, GISWNSGSIGYADSVK, VGRGGGYFDY.
The Kd shown is the geometric mean over detected replicates; a lower Kd is a better binder.
A pair that was not seen in any replicate is written "no signal"; this usually means weak binding, but a binder can also be missed.
For reference, the parent read 72 nM as the reference entry and 7.5 nM as a member of this library.
Background: pairings of library AAYL51 with three empty control strains gave a value in 21% of cases (median 34 µM, 5th percentile 1.8 µM). Values in that range, when seen in few replicates, are hard to tell from nonspecific mating.

| Kd | detected | CDR-H1 | CDR-H2 | CDR-H3 |
|---|---|---|---|---|
| no signal | 0/3 | GFTFDDYAMH | GISWNSGSIGYATSVK | CGRGGGYFDK |
| 1.6 µM | 3/3 | GFTFDDYAMH | GISWNSICIGYADSVK | VGRGGGYFLY |
| no signal | 0/3 | GFTFDDYAMH | GASGNSGSIGYATSVK | VGRGGGYFDY |
| no signal | 0/3 | GFTFDDYFMH | GISWNSGWIGYALSVK | VGRGGGYFDY |
| 150 µM | 1/3 | GFTFDDYACH | GISWNSGSIGYEDSVK | VGRGGGYFDR |
| 9.1 nM | 3/3 | GFTFDSTAMH | GISWNSGSIGYCDSVK | VGRGGGYFDY |
| no signal | 0/3 | GFTFDDYAMH | GISWNSGSIGMADSVM | VGRGGGNFDY |
| 9.9 µM | 1/3 | GFTFDDYAMH | GISWNAGSIGYADSVR | VGRGGGYFWY |
| 3.4 µM | 2/3 | DFTFDDPAMH | GISGNSGSIGYADSVK | VGRGGGYFDY |
| 33 µM | 2/3 | GFTFDDYAMH | GISWNSGSIYYADSVK | VGRGGGYFDV |
| no signal | 0/3 | GWTFDDYAMH | GISWNSGSIGYADSVK | VGREEGYFDY |
| 460 µM | 2/3 | GFTFDDEAMH | GISWKSGSIGYADSVK | VGRGGGTFDY |
| 84 µM | 2/3 | GFTLDDYAMF | GISWWSGSIGYADSVK | VGRGGGYFDY |
| 270 nM | 3/3 | GFTFDDYAMH | GISWNSGSIGYADSVK | VGDGGGVFDR |
| 3.6 µM | 1/3 | DFTFDDYAMH | GPSWNSGSIGYADSVK | VGRGGGSFDY |
| 100 µM | 1/3 | GFTFDDKAMC | GISWNSGSIGYADSVK | VGRGGGYFDS |
| 17 µM | 2/3 | GFTFDDYAMH | GISSNSGLIGYADSVK | VGRGGGYFPY |
| 630 nM | 3/3 | GFTFDDYAMH | GISWNSGSIGYLDSIK | VGRGGGYFDY |
| 1.0 µM | 1/3 | GFTFDDGAMH | GISWNSGSIGYADSVK | VGRGGGYFDS |
| no signal | 0/3 | GFTFDDYAMH | GISWNSGQIGYADSVK | VGRGWGYFDY |
| 3.2 µM | 1/3 | GFTFDDYAMH | GICWNSGSIGYADSVK | VGYGGGYFDY |
| no signal | 0/3 | GFTFDDYAMD | GISWNSGSICYADSVK | VGRGSGYFDY |
| 38 µM | 2/3 | GFTFDTYAMH | GISWNSWSIVYADSVK | VGRGGGYFDY |
| 25 µM | 2/3 | GFTFDDYPMH | GISWNSGRIGYADSYK | VGRGGGYFDY |
| no signal | 0/3 | GFTFDDYAMH | GISLNSGSIGYADSVK | VGRGYGYFQY |
| no signal | 0/3 | GFTFDDYAMH | GISWNSGSICYADLVK | VGRGGGVFDY |
| 1.9 µM | 1/3 | GFTFDDYAQR | GISWNSGSIGYADSVL | VGRGGGYFDY |
| 540 µM | 1/3 | GFTKDDYAMH | GISWNSGAIGYADSVK | VGRGGGYADY |
| 330 µM | 1/3 | GFTFDDYNMH | GISWPSGSIGYADSVK | VGRGGGYFDL |
| 22 µM | 1/3 | GFPFDDYAMH | GTSWNSGSIGYADSVK | VGRGGGYFLY |
| 200 µM | 2/3 | GFTFDDYAMH | SISWNSGSIGYFDSVK | SGRGGGYFDY |
| 260 µM | 1/3 | GFTFDDYAMH | GISWNLGSIGNADSVK | VGRGGGYFDK |
| no signal | 0/3 | RFTFDDYAMH | GISWNSGSIDYADSVK | VGRGGGYFMY |
| 81 µM | 3/3 | GGHFDDYAMH | GISWNSGSIGYADSVK | VARGGGYFDY |
| 47 µM | 1/3 | GSTFDDYAMH | GASWQSGSIGYADSVK | VGRGGGYFDY |
| no signal | 0/3 | GFTFDDYAMH | GFSWNSGSIGYADSVN | VGRGGGYFQY |
| 40 µM | 2/3 | GFTFDDYAMA | GISWNSGSIGYADSVK | VGRGGQYFDG |
| no signal | 0/3 | GFTFDDYAMH | GISWNSGDIGYADSVK | VHRGGGYFDY |
| no signal | 0/3 | GFPFDDYAMH | GISWNFGSIGYADSVK | VGRGGGYFDY |
| 12 µM | 1/3 | GFVFDDYAMH | GISWNSGSIGYADRNK | VGRGGGYFDY |
| no signal | 0/3 | GSTFDDYAMH | GISWNSGSIGYADSQK | VGRGGGDFDY |
| 210 µM | 2/3 | GFTFDDYAMH | GISWNSGSIHYFDSVR | VGRGGGYFDY |
| no signal | 0/3 | GFTFFDYAMH | GISWNSGSIGYADSWK | VGRGGGYFDY |
| 130 nM | 3/3 | GFTIDDYAMH | GISRNSGSIGYADSVH | VGRGGGYFDY |
| no signal | 0/3 | EFTFDDYAMH | GISWNSGSNGMADSVK | VGRGGGYFDY |
| no signal | 0/3 | GITFDDYAMH | GISWNSGSIGYADSVK | VGRGTGYQDY |
| 2.0 µM | 3/3 | GFTFDDYAMH | GIGWNSHSIGYADSVK | VGTGGGYFDY |
| 84 µM | 1/3 | EFTFDDYAMH | GISWNSGSIGYADSVK | VGRGGGYRDY |
| 120 nM | 3/3 | GFTFDMYAMH | GISWNSGSIGYANSVK | VGRSGGYFDY |
| no signal | 0/3 | GFTFDDYAMH | GISWNSRSIGYADSVK | VGRGGGYFCY |
| 60 nM | 3/3 | GFTFDDYAMH | GISWNSCSIGYADSVK | VGRGPGCFDY |
| no signal | 0/3 | GFTFDDYAMH | GISWNSGSIGYADSVK | VGRGTDYFDY |
| 86 µM | 2/3 | GFTFGNYAMN | GISWNSGSIGYADSVK | VGRGGGYFDY |
| 99 µM | 1/3 | AFTFDDYAMH | GISWNSGSIGYNDSVK | VGRGWGYFDY |
| 480 nM | 3/3 | GFTFDDYAMH | GISWNSGSIGYADSVK | VQRGGGYKNY |
| 21 µM | 1/3 | GFTFDDYAMH | GISWNCGSIGYADSVK | QGRGGGYFDY |
| 14 µM | 2/3 | GFTFDDYAMH | GSSWNSGSIGYADSVK | VGRGEGYFPY |
| no signal | 0/3 | GFTFDDYAMH | GISWNSFMIGYADSVK | VGRYGGYFDY |
| 1.6 µM | 1/3 | GHTFDDYAMH | GISWNQGSIGYADSVK | VGRGGGGFDY |

The last 9 entries again:

| CDR-H1 | CDR-H2 | CDR-H3 | Kd | detected |
|---|---|---|---|---|
| GFTFDDYAMH | GISWNSCSIGYADSVK | VGRGPGCFDY | 60 nM | 3/3 |
| GFTFDDYAMH | GISWNSGSIGYADSVK | VGRGTDYFDY | no signal | 0/3 |
| GFTFGNYAMN | GISWNSGSIGYADSVK | VGRGGGYFDY | 86 µM | 2/3 |
| AFTFDDYAMH | GISWNSGSIGYNDSVK | VGRGWGYFDY | 99 µM | 1/3 |
| GFTFDDYAMH | GISWNSGSIGYADSVK | VQRGGGYKNY | 480 nM | 3/3 |
| GFTFDDYAMH | GISWNCGSIGYADSVK | QGRGGGYFDY | 21 µM | 1/3 |
| GFTFDDYAMH | GSSWNSGSIGYADSVK | VGRGEGYFPY | 14 µM | 2/3 |
| GFTFDDYAMH | GISWNSFMIGYADSVK | VGRYGGYFDY | no signal | 0/3 |
| GHTFDDYAMH | GISWNQGSIGYADSVK | VGRGGGGFDY | 1.6 µM | 1/3 |